A short description of one data set: Partition coefficient Kp with rhodium/ligand catalyst solutions (rhodium in each phase determined). Particulars: hexane/acetonitrile; 136 ppm rhodium, 0.6 wt% Ligand E, 50 psig syn gas; Example 14.
`CC(C)(C)CC(C)(C)c1cc(-c2cc(C(C)(C)CC(C)(C)C)cc(C(C)(C)CC(C)(C)C)c2Op2oc3ccc(C(C)(C)C)cc3c3cc(C(C)(C)C)ccc3o2)c(Op2oc3ccc(C(C)(C)C)cc3c3cc(C(C)(C)C)ccc3o2)c(C(C)(C)CC(C)(C)C)c1` [Ligand E] gave a partition coefficient Kp of the ligand of 1.72.

Another data set is described as follows: Partition coefficient Kp of the ligand between hexane and polar solvent. Particulars: hexane/acetonitrile solvent system; examples, Tables A and B.
`CC(C)(C)CC(C)(C)c1cc(-c2cc(C(C)(C)CC(C)(C)C)cc(C(C)(C)CC(C)(C)C)c2Op2oc3ccccc3c3ccccc3o2)c(Op2oc3ccccc3c3ccccc3o2)c(C(C)(C)CC(C)(C)C)c1` [Ligand C]: the partition coefficient Kp amounted to 1.58.
The compound `CC(C)(C)CC(C)(C)c1cc(-c2cc(C(C)(C)CC(C)(C)C)cc(C(C)(C)CC(C)(C)C)c2Op2oc3ccc(C(C)(C)C)cc3c3cc(C(C)(C)C)ccc3o2)c(Op2oc3ccc(C(C)(C)C)cc3c3cc(C(C)(C)C)ccc3o2)c(C(C)(C)CC(C)(C)C)c1` [Ligand E] yielded a partition coefficient Kp of 2.7.
`CC1(c2cc(-c3cc(C4(C)CCCCC4)cc(C4(C)CCCCC4)c3Op3oc4ccccc4c4ccccc4o3)c(Op3oc4ccccc4c4ccccc4o3)c(C3(C)CCCCC3)c2)CCCCC1` [Ligand G] yielded a partition coefficient Kp of 1.28.
Still for that read-out and setting: the same measure for `CC(C)(C)c1cc(-c2cc(C(C)(C)C)cc(C(C)(C)C)c2Op2oc3ccc(C(C)(C)C)cc3c3cc(C(C)(C)C)ccc3o2)c(Op2oc3ccc(C(C)(C)C)cc3c3cc(C(C)(C)C)ccc3o2)c(C(C)(C)C)c1` [Ligand B]: 1.41.
On the same count and under the same terms, for `c1ccc(-c2ccccc2Op2oc3ccccc3c3ccccc3o2)c(Op2oc3ccccc3c3ccccc3o2)c1` [Ligand A, reference compound] the value was -1.4.
Same read-out and setting: for `CCC(C)(C)c1cc(-c2cc(C(C)(C)CC)cc(C(C)(C)CC)c2Op2oc3ccccc3c3ccccc3o2)c(Op2oc3ccccc3c3ccccc3o2)c(C(C)(C)CC)c1` [Ligand H] the value was 0.778.
Compound `CCCCCC(C)(C)c1cc(-c2cc(C(C)(C)CCCCC)cc(C(C)(C)CCCCC)c2Op2oc3ccccc3c3ccccc3o2)c(Op2oc3ccccc3c3ccccc3o2)c(C(C)(C)CCCCC)c1` [Ligand D] registered a partition coefficient Kp of 2.06.

Source of the values: patent US5952530A, “Separation processes” (Union Carbide Chemicals & Plastics Technology Corporation, priority 1998, dated 1999).
